Measured values from PubChem BioAssay AID1416 (The Scripps Research Institute Molecular Screening Center, 2008).
The list shows a part of the results, in another mix than the full data. Some results for these compounds are left out of this collection, so the calls shown say nothing about other tests. Active and inactive are the calls of the source.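 How the source made its calls: active means inhibition above the mean inhibition of all tested compounds plus 3 SD, set separately per screening campaign (cut at about 2.9% in these data); inactive means the rest.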

Protein sequences, listed by entry. Tags and fused reporters are not part of them.
UniProt Q9NZJ5, whole entry: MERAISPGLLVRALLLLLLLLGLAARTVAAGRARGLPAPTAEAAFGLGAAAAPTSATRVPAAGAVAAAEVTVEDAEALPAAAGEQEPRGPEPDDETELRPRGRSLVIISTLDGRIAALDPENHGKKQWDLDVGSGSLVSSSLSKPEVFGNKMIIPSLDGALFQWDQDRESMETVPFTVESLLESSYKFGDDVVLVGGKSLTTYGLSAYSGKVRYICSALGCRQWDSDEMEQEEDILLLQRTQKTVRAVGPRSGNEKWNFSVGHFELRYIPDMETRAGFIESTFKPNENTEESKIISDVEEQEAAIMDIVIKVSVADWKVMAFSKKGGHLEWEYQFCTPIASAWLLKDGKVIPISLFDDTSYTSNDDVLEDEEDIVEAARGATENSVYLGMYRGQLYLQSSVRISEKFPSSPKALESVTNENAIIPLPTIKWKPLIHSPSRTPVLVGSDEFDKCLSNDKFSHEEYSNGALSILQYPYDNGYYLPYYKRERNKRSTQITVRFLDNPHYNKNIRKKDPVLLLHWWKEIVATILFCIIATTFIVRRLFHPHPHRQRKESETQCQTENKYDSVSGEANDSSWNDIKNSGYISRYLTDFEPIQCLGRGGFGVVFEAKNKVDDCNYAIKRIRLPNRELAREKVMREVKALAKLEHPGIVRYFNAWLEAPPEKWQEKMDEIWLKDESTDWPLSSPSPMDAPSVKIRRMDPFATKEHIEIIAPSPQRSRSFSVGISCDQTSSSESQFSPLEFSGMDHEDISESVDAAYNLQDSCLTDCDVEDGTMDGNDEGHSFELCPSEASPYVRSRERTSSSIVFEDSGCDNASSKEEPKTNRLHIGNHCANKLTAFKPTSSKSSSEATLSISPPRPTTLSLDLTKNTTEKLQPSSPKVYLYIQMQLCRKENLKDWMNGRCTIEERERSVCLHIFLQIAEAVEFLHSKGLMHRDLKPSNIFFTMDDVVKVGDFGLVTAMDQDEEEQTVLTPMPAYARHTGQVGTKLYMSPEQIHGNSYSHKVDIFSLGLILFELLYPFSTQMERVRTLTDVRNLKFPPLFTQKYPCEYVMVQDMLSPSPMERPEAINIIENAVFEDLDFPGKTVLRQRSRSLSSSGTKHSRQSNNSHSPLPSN

Target: Eukaryotic translation initiation factor 2-alpha kinase 3 (Homo sapiens) (UniProt Q9NZJ5)
Assay: SEAP translation reporter rise after PERK-DD activation – CHO PERK-DD cells, SEAP luminescence, HTS, PERK inhibitor project, primary screen (AID 1416);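 further: PERK kinase domain activated by AP20187 dimerizer at 100 nM; 0% = DMSO with dimerizer and 100% = rapamycin at 8.4 µM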
Conditions: CHO PERK-DD fusion, at 5.6 µM, hits give high values

Structure (SMILES) | inhibition
O=C(OC1CN2CCC1CC2)C(CO)(c1ccccc1)c1ccccc1 (stereo unspecified) | inactive: -0.63%
COc1ccc(Br)c(C(=O)NCC2(N3CCCCC3)CCCCC2)c1 | inactive: 1.63%
CN(C)c1cccc(C(=O)NCC2(N(C)C)CCCCC2)c1 | inactive: 0.04%
COc1cccc(C(=O)NCC2(N3CCCCC3)CCCCC2)c1 | inactive: -0.15%
Cc1ccccc1C(=O)NCC1(N2CCCCC2)CCCCC1 | inactive: -0.19%
CN(C)C1CCCC1OC(=O)C(O)(c1ccccc1)c1ccccc1 (stereo unspecified) | inactive: 0.48%
C=CCN1CCN(CCOC(=O)C(O)(c2ccccc2)c2ccccc2)CC1 | inactive: 0.12%
CCN1CCCC(OC(=O)C2(O)c3ccccc3C=Cc3ccccc32)C1 (stereo unspecified) | inactive: -0.47%
O=C(NCC1(N2CCCCC2)CCCCC1)c1cc([N+](=O)[O-])ccc1Cl | inactive: -0.27%
CC(C)N1C(=O)CC2(CCN(CCOC(=O)C(O)(c3ccccc3)c3ccccc3)CC2)C1=O | inactive: 1.14%
CCN(CC)CC(C)C(C)OC(=O)C(O)(c1ccccc1)c1ccccc1 (stereo unspecified) | inactive: -0.97%
